# Assay results published in ChEMBL document CHEMBL2396608, “Thiazolylaminomannosides as potent antiadhesives of type 1 piliated Escherichia coli isolated from Crohn's disease patients” (J Med Chem, 2013).
# Chains of the proteins cited; added tags and fusions are not shown.
# UniProt P08191, whole entry: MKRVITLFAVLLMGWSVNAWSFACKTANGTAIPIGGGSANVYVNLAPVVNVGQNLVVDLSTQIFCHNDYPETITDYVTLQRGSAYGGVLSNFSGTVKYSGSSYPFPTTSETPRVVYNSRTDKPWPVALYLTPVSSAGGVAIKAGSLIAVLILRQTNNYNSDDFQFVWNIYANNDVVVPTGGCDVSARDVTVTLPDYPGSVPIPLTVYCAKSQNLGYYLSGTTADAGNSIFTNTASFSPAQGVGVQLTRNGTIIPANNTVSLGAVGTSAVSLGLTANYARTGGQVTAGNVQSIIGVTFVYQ
# Biological target: Type 1 fimbrin D-mannose specific adhesin (Escherichia coli K-12) (UniProt P08191)
# Assay: Binding affinity to Escherichia coli FimH assessed as decrease in RNaseB binding after 1 hr by competitive ELISA
# In short: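 Wells coated with RNaseB in bicarbonate buffer pH 9.6, overnight at 4 °C. Blocked with 3% BSA in PBST, 2 h at 37 °C. Inhibitors in PBST plus FimH at 0.07 μM, 1 h at room temperature. Detection used rabbit anti-FimH (1:2500, 1 h), then HRP anti-rabbit (1:5000, 1 h), then TMB for 2–5 min in the dark, stopped with 1N H₂SO₄. Absorbance read at 450 nm.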
smiles,measurement,value
CCCCCCCO[C@H]1O[C@H](CO)[C@@H](O)[C@H](O)[C@@H]1O,Activity,Dose-dependent effect
